The record followed here is patent publication US7585886B2, “Pyrrolidine derivative or salt thereof” (Astellas Pharma Inc., priority 2005, dated 2009).

Sequences of proteins named here, by UniProt entry; tags and fusion partners are left off. Residues count along the entry.
UniProt P41180, 20-1078 limits assumed: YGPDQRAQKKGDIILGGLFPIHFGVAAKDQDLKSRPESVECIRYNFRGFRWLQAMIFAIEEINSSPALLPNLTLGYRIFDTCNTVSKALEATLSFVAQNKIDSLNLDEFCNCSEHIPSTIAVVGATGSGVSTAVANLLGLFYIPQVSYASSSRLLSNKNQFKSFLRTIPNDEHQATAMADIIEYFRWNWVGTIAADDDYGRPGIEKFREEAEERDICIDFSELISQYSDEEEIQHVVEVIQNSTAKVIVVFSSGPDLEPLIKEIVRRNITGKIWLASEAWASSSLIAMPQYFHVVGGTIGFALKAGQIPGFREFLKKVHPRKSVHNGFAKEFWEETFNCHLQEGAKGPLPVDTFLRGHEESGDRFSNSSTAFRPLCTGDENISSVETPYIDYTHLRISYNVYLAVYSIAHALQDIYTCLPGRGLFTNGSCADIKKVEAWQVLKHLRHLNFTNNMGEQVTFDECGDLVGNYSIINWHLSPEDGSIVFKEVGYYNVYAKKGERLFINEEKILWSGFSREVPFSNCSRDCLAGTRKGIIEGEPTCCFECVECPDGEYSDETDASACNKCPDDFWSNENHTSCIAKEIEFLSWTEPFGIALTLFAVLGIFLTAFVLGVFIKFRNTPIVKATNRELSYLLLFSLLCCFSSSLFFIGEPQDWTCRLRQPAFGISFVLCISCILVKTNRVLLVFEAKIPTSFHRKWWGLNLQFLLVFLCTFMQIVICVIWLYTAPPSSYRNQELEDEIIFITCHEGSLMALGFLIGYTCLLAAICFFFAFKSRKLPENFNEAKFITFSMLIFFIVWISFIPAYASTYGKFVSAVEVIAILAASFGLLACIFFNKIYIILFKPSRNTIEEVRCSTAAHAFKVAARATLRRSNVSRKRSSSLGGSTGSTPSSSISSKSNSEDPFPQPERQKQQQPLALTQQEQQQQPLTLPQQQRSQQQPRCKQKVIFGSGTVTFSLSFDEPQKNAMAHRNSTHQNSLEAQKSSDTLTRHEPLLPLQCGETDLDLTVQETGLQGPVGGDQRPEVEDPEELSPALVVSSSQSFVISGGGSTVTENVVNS
UniProt P10635, whole entry: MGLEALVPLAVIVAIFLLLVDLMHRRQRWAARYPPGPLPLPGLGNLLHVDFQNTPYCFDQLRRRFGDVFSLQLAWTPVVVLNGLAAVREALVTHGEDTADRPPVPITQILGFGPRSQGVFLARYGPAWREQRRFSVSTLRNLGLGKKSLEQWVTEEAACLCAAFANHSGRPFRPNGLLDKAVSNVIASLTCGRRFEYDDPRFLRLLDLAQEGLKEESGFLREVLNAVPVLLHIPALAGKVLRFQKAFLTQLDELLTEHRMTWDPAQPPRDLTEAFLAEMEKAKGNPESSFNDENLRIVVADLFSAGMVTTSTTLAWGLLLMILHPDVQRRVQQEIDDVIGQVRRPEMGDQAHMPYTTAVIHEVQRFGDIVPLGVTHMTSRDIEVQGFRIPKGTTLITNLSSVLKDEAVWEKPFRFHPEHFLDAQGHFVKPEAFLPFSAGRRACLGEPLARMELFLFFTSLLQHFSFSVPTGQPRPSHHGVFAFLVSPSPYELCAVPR

In series [1] the target is human CaSR (Homo sapiens, UniProt P41180). Kind of series: Human calcium sensing receptor (CaSR) agonistic activity test (FLIPR, Fluo-3 intracellular Ca2+). The following applies: read-out: EC50 (compound concentration showing 50% activity), human CaSR agonistic activity; HEK 293 cell stably expressing human CaSR; 0.5 mM Ca2+ buffer; solvent group 0%, 2 mM Ca2+ group 100%; tested form: HCl. An excerpt: Test 1. Human Calcium Sensing Receptor (CaSR) Agonistic Activity Test
• 1) Preparation of Human CaSR Expression Vector
A DNA fragment coding for human CaSR was cloned in the standard method. Illustratively, using 203 to 2387 of NM_000388 as a DNA fragment D4, and 2210 to 3633 as a DNA fragment B2, they were amplified using a human kidney cDNA (mfd. by Invitrogen) as the template and using a DNA polymerase (a registered trade name: Pyrobest, mfd. by Takara Bio), and respectively cloned into a pCR2.1 vector using a pCR2.1-Topo vector (mfd. by Invitrogen). Next, DNA fragments prepared by digesting pCR2.1-D4 with SpeI and XbaI were inserted into the same sites of pcDNA3.1/Zeo(+) vector. Successively, the fragments prepared by digesting pCR2.1-B2 with SacI and XbaI were inserted into the SacI and XbaI sites of previously prepared pcDNA3.1/Zeo(+)-D4 (SpeI-XbaI), thereby obtaining a human CaSR expression vector pcDNA3.1/Zeo(+)-hCaSR in which human CaSR open reading frame (ORF) was contained in the pcDNA3.1/Zeo(+) vector. • 2) Preparation of Human CaSR Expression Cell […]
The HEK 293 cell stably expressing human CaSR was inoculated into a poly-D-lysine-coated black clear bottom 96 well plate (mfd. by BD Bioscience). […] In this connection, the compound to be evaluated was used by optionally diluting with the washing buffer supplemented with 0.5 mM Ca^2+. […]

A short description of series [2]: Measurement of rat plasma calcium concentration after single oral administration. The note with it: normal male rats, 3 mg/kg oral administration, tested form: HCl. As for the experimental part: Test 2. Measurement of Rat Plasma Calcium Concentration and Plasma PTH Concentration
The compounds of the invention were administered to rats, and their influences upon the plasma calcium concentration and plasma PTH concentration were examined. The test was carried out by single oral administration of the compounds 5 or 6 normal male rats.
As a vehicle group, an MC solution prepared by adding 0.5% methyl cellulose (MC) solution or ethanol to a final concentration of 5% was administered at a dose of 5 ml/kg. As the comparative control, cinacalcet was dissolved in the MC solution and administered at a dose of 3 mg/kg. Each of the compounds, of the invention was dissolved or suspended the MC solution, or dissolved in ethanol and then diluted with the MC solution as occasion demands, and administered at a dose of 1, 3 or 10 mg/kg.
Blood samples were collected from the orbital venous plexus under ether anesthesia before the administration and 2Hours, 4Hours, or 8Hours in some cases, after the administration, and the plasma calcium concentration was measured using Calcium E-Test Wako (mfd. by Wako Pure Chemical Industries), and the plasma PTH concentration using Rat Intact PTH ELISA Kit (mfd. by Immutopics) or Rat Bioactive Intact PTH ELISA Kit (mfd. by Immutopics).

For series [3], the target named is CYP2D6 (Homo sapiens, UniProt P10635). In words: Human CYP2D6 inhibition test (fluorescence substrate AMMC). The note with it: read-out: IC50 (concentration showing 50% inhibition), CYP2D6; recombinant CYP2D6, AMMC 1.5 μM, 37° C. 30 minutes; tested form: HCl. As for the experimental part:
Test 3. Human CYP2D6 Inhibition Test
Inhibitory activity evaluation for CYP2D6 was carried out by measuring it in accordance, roughly, with a reference (“Drug Metabolism and Disposition”, 2001, vol. 29, p. 1196-1200).
Final concentrations of the reagents in the enzyme reaction solution were respectively ser to CYP2D6=[…] (mfd. by BD Gentest, Cat. No.: 456217), reduced type nicotinamide adenine dinucleotide phosphate (NADPH) regeneration system (0.0081 mM nicotinamide adenine dinucleotide phosphate (NADP+), 0.41 mM glucose-6-phosphate, 0.41 mM MgCl2, […] glucose-6-phosphate dehydrogenase), and a fluorescence substrate AMMC=1.5 μM, 100 mM potassium phosphate buffer (pH 7.4). Each compound was made into a 50% acetonitrile solution and added to the enzyme reaction solution (acetonitrile final concentration 2.5%). The enzyme reaction was carried out at 37° C. for 30 minutes, the reaction was stopped using a stopping liquid (0.1 M tris(hydroxymethyl)aminomethane (Tris-base):acetonitrile=20:80), and then fluorescence intensity was measured. The concentration showing 50% inhibition (IC50) was calculated from the thus obtained fluorescence intensity, by defining the enzyme activity at the time of no compound addition as 100%.

Turning to `C[C@@H](NC[C@H]1CN(C(=O)CCC(C)(C)C(=O)O)C[C@@H]1c1ccccc1)c1cccc2ccccc12`, in series [1], the EC50 was found to be 17 nM. Further, the “Rat plasma calcium concentration reducing ratio (%) 4 hours after administration” value in series [2] was 18%. Also, the IC50 in series [3] was at least 6000 nM.
